Tested on: human normal hepatocytes HL-7702
Experiment: MTT test on human normal hepatocytes HL-7702
Settings: read-out: IC50 HL-7702; human normal hepatocytes HL-7702, MTT, 48 h

Substance	IC50 [µM]
4β-S-(3-phenyl-1,3,4-thiadiazol-2(3H)thione potassium salt-5)-4demethylepipodophyllotoxin [Compound 26]	43.4 ± 4
4β-S-(3-phenyl-1,3,4-thiadiazol-2(3H)thione potassium salt-5)-podophyllotoxin [Compound 25]	57.5 ± 2.99
